# Target: T1, human amylin receptor (Homo sapiens, UniProt O60896+P30988)
# T1 construct: expressed in transfected cells
# T1 sequence (P30988 25-474): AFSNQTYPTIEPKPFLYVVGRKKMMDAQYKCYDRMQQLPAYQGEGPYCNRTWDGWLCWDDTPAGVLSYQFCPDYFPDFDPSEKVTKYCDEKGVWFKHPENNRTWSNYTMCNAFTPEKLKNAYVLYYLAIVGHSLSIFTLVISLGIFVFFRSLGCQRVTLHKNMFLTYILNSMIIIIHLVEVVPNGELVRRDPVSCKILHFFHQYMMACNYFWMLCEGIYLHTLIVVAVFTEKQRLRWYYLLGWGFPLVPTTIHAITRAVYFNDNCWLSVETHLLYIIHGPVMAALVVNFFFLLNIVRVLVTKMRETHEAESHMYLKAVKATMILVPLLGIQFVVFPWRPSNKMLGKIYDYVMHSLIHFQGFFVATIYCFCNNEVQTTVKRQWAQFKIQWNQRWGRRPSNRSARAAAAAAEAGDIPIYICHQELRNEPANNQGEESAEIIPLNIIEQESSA
# T1 sequence (O60896 24-148 partner): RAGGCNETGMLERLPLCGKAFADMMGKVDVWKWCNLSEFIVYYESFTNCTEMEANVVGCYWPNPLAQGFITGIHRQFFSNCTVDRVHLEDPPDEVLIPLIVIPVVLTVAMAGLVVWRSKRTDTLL
# Assay: Assay (V) binding to the human amylin receptor (SPA, 125I-rat amylin)
# Conditions: species not stated
smiles,measurement,value
CC(C)C[C@H](NC(=O)[C@H](CCCCN)NC(=O)CNC(=O)[C@H](CC(C)C)NC(=O)[C@@H](NC(=O)[C@@H]1CSSC[C@H](N)C(=O)N[C@@H](CO)C(=O)N[C@@H](CC(N)=O)C(=O)N[C@@H](CC(C)C)C(=O)N[C@@H](CO)C(=O)N[C@@H]([C@@H](C)O)C(=O)N1)C(C)C)C(=O)N[C@@H](CO)C(=O)N[C@@H](CCC(N)=O)C(=O)N[C@@H](CCC(=O)O)C(=O)N[C@@H](CC(C)C)C(=O)N[C@@H](Cc1c[nH]cn1)C(=O)N[C@@H](CCCCN)C(=O)N[C@@H](CC(C)C)C(=O)N[C@@H](CCC(N)=O)C(=O)N[C@H](C(=O)N[C@@H](Cc1ccc(O)cc1)C(=O)N1CCC[C@H]1C(=O)N[C@@H](CCCNC(=N)N)C(=O)N[C@H](C(=O)N[C@@H](CC(N)=O)C(=O)N[C@H](C(=O)NCC(=O)N[C@@H](CO)C(=O)NCC(=O)N[C@H](C(=O)N1CCC[C@H]1C(N)=O)[C@@H](C)O)[C@@H](C)O)[C@@H](C)O)[C@@H](C)O [salmon calcitonin],binding affinities to amylin receptors and calcitonin receptors,comparable binding affinities to amylin receptors and calcitonin receptors

# — patent US8575091B1, “Amylin analogues and pharmaceutical compositions thereof” (Novo Nordisk A/S, priority 2012, dated 2013)
